Tests used:
Assay in all cases: Biochemical kinase profiling (33PanQinase radiometric assay)
PDGFRA = PDGFRA (Homo sapiens, UniProt P16234); conditions: read-out: PDGFRA IC50; ATP at apparent Km
TGFBR2 = TGFBR2 (Homo sapiens, UniProt P37173); conditions: read-out: TGFBR2 IC50; ATP at apparent Km
EGFR = EGFR (Homo sapiens, UniProt P00533); conditions: read-out: EGFR IC50; ATP at apparent Km
ROCK2 = ROCK2 (Homo sapiens, UniProt O75116); conditions: read-out: ROCK2 IC50; ATP at apparent Km
SRC = SRC (Homo sapiens, UniProt P12931); conditions: read-out: SRC IC50; ATP at apparent Km
PDGFRB = PDGFRB (Homo sapiens, UniProt P09619); conditions: read-out: PDGFRB IC50; ATP at apparent Km
TGFBR1 = biological target: T1, TGFBR1 (Homo sapiens, UniProt P36897); conditions: read-out: TGFBR1 IC50; ATP at apparent Km
T1 sequence (P36897 34-503): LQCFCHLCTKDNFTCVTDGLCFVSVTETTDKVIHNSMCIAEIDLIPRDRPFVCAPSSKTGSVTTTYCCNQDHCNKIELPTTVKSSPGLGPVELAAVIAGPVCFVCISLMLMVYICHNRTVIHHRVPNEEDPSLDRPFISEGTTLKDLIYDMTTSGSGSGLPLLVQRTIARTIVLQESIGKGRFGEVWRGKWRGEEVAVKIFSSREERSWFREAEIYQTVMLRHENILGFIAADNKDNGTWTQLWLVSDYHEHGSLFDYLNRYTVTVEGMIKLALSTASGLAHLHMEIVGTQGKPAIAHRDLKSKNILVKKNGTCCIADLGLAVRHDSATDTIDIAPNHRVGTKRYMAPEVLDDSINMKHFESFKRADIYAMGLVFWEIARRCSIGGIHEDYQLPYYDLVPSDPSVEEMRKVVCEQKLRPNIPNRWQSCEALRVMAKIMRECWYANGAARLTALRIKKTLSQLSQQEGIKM

By UniProt entry, the sequences of proteins in these tests, tags left out. Where a name states a change or a piece, a line headed by the entry shows the natural chain unless it says otherwise. Residues count along the entry.
UniProt P16234, 24-1089: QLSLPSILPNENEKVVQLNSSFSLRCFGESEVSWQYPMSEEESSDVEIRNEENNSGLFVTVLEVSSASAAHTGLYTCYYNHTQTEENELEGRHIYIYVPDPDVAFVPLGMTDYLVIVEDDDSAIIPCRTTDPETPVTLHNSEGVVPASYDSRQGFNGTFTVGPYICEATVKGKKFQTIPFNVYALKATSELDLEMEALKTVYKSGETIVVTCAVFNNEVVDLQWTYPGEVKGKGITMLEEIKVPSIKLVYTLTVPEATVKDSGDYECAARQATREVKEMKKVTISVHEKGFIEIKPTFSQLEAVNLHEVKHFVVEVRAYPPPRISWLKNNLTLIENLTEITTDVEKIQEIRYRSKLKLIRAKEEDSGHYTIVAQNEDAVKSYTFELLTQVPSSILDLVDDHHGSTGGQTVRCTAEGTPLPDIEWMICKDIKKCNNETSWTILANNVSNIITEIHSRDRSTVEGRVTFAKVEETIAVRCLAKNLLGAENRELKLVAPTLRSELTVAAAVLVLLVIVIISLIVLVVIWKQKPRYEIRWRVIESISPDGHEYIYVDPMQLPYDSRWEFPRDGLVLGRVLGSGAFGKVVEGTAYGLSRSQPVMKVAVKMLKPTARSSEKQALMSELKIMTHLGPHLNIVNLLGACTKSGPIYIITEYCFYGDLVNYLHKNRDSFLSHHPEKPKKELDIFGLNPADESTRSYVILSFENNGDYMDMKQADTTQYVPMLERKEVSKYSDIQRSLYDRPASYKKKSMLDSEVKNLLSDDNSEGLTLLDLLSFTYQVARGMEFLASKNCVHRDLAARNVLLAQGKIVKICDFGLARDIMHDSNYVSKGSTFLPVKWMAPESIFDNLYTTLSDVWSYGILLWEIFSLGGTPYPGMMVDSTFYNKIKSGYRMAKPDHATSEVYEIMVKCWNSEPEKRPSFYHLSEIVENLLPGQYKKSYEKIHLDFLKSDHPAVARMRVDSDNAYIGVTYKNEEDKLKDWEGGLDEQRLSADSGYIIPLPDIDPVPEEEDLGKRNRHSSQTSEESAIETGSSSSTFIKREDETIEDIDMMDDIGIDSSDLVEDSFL
UniProt P37173, 23-567: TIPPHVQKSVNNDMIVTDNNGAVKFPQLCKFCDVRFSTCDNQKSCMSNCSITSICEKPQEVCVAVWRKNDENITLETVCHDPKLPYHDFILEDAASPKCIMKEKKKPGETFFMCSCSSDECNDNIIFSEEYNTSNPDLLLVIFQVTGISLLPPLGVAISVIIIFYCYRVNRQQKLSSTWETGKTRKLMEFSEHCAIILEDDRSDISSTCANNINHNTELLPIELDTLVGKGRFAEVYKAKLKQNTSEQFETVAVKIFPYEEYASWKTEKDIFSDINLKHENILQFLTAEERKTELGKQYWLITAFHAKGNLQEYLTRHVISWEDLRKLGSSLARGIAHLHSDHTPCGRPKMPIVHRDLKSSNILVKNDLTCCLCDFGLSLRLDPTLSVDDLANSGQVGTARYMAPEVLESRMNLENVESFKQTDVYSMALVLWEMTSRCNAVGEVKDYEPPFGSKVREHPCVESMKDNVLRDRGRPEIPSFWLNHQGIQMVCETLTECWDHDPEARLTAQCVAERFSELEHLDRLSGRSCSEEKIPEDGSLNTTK
UniProt O75116: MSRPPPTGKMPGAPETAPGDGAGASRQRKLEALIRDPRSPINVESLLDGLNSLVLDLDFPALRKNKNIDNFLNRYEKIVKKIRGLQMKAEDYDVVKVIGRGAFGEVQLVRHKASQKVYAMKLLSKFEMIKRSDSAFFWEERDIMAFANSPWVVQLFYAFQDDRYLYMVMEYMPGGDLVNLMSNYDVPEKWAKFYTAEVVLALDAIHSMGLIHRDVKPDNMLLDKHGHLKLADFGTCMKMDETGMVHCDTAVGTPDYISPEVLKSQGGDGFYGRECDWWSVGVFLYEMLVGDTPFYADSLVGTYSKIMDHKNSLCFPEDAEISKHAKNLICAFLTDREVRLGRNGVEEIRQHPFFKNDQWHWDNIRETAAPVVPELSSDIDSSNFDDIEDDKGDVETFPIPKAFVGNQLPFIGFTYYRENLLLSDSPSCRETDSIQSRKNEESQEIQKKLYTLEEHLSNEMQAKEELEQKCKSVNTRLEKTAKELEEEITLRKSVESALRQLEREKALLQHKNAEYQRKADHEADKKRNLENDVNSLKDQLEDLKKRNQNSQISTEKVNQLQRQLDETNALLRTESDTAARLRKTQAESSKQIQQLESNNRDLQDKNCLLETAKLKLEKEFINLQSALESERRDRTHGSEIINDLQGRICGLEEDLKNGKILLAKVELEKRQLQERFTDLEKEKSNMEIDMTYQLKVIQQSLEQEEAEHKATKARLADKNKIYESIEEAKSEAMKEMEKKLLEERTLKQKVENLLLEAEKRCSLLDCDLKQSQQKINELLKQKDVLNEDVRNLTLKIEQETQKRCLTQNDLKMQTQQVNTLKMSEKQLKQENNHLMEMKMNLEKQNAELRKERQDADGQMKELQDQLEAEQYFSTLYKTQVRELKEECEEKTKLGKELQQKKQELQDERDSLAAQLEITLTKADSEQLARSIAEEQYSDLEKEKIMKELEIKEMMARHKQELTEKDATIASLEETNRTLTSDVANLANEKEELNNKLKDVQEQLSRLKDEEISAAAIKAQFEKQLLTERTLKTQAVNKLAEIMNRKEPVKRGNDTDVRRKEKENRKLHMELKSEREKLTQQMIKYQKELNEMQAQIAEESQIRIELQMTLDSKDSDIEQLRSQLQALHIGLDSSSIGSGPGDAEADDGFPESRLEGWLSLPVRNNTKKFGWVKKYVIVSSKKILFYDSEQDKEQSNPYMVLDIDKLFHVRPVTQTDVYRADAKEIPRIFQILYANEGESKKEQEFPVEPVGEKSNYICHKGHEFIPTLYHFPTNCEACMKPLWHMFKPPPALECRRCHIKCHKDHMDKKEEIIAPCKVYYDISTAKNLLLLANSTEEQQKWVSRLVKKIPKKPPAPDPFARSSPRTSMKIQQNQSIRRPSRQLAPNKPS
UniProt P09619, 33-1106: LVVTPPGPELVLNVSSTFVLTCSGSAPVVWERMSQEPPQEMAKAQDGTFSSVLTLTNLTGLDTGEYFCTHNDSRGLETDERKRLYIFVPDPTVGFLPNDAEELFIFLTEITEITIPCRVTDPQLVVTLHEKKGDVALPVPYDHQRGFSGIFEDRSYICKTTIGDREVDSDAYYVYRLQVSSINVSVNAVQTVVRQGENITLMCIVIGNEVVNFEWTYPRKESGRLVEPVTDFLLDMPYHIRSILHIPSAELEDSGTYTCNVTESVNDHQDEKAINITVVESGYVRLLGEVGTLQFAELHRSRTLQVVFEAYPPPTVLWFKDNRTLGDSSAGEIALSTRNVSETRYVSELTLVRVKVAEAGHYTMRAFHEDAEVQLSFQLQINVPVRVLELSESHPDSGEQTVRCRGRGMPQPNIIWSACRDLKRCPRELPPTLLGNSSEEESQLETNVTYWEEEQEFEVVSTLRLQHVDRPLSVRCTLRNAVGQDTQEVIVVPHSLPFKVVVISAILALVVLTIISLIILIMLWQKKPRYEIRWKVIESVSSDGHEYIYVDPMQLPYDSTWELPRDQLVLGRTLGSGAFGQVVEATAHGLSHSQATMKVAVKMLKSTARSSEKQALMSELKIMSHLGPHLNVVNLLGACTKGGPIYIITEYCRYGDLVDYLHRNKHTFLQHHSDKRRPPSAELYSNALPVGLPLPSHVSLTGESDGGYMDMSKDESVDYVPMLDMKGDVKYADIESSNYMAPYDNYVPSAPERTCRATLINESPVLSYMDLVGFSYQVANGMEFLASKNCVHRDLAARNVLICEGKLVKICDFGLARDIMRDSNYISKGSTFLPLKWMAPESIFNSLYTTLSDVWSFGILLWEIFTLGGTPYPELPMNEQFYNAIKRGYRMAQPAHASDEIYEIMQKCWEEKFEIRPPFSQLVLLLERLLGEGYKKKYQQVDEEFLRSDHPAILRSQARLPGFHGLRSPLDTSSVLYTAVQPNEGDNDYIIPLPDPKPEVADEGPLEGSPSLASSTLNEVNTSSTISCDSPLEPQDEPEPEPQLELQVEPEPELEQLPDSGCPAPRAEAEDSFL

## AZD4547
PDGFRA
  IC50: > 10 µM
TGFBR2
  IC50: 8.77 µM
EGFR
  IC50: > 10 µM
ROCK2
  IC50: > 10 µM
SRC
  IC50: 0.76 µM
PDGFRB
  IC50: 1.01 µM
TGFBR1
  IC50: > 10 µM

From paper PMC5041959, “A high-content EMT screen identifies multiple receptor tyrosine kinase inhibitors with activity on TGFβ receptor” (Oncotarget, 2016)
